Test [1] concerns the target full length wild-type human VEGFR-2 (human) (UniProt P35968).
The target in test [2] is VEGFR-2 EC+TM-(GGS)5-YFP or -mCherry (human) (UniProt P35968).

By UniProt entry, the sequences of proteins in these tests, tags left out. Residues count along the entry.
UniProt P35968, 20-1356: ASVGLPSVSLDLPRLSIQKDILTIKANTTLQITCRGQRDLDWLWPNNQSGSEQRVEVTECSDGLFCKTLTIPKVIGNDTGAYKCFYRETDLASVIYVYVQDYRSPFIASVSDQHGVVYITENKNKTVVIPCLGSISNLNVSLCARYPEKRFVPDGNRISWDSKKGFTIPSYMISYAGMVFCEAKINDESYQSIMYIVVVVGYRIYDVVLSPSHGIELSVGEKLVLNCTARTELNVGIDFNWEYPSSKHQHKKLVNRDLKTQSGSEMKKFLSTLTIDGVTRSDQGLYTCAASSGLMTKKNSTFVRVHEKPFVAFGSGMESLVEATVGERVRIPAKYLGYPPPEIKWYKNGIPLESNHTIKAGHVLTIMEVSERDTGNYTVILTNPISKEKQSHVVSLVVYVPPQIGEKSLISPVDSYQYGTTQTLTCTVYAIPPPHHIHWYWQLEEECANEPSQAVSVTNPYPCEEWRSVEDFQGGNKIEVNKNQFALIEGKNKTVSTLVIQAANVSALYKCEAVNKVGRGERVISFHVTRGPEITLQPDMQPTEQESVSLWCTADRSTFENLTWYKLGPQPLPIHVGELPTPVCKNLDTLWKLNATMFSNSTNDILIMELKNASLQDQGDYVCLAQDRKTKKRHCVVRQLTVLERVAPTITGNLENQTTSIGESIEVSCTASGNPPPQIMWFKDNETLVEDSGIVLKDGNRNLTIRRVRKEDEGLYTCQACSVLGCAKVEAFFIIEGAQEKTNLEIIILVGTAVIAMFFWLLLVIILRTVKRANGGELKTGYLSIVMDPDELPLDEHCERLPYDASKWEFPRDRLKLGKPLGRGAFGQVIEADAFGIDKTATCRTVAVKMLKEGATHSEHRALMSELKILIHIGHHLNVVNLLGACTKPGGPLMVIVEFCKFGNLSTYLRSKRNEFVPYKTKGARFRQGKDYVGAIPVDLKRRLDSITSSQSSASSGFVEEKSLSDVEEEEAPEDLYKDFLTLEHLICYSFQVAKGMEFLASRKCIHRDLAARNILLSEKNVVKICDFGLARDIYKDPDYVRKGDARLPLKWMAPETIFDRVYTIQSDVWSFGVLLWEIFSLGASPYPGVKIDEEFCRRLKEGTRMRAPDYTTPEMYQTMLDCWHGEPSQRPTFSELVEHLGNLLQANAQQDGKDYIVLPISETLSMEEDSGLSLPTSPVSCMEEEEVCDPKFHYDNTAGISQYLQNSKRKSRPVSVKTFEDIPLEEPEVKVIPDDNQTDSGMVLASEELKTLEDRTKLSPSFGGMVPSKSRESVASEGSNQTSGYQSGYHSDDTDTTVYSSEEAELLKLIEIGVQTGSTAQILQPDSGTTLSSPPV

Where only a bound is given, the exact number is not on record here.

Take human VEGF-A121 (ligand): the phosphorylation of full-length VEGFR-2 (Tyr 1175, Western blot) with 3 ug/ml ligand against no ligand in test [1] is below 10 fold. In test [2], this substance came in with an Intrinsic FRET of the EC+TM dimer (YFP/mCherry) with 3 ug/ml ligand; 0.61 without ligand of 0.45.

human VEGF-A165a (ligand) gave a phosphorylation of full-length VEGFR-2 (Tyr 1175, Western blot) with 3 ug/ml ligand against no ligand in test [1] below 10 fold. The same substance came in with an Intrinsic FRET of the EC+TM dimer (YFP/mCherry) with 3 ug/ml ligand; 0.61 without ligand in test [2] of 0.43.

On to human VEGF-A165b (ligand), for which, in test [1], the phosphorylation of full-length VEGFR-2 (Tyr 1175, Western blot) with 3 ug/ml ligand against no ligand is below 10 fold. Besides, the Intrinsic FRET of the EC+TM dimer (YFP/mCherry) with 3 ug/ml ligand; 0.61 without ligand in test [2] stood at 0.42.

These data come from paper PMC4829425.
